Assay results taken from ChEMBL document CHEMBL3822423 (J Med Chem, 2016).

Sequences of proteins named here, by UniProt entry; tags and fusion partners are left off. Residues count along the entry.
UniProt P02768, 25-609 limits assumed: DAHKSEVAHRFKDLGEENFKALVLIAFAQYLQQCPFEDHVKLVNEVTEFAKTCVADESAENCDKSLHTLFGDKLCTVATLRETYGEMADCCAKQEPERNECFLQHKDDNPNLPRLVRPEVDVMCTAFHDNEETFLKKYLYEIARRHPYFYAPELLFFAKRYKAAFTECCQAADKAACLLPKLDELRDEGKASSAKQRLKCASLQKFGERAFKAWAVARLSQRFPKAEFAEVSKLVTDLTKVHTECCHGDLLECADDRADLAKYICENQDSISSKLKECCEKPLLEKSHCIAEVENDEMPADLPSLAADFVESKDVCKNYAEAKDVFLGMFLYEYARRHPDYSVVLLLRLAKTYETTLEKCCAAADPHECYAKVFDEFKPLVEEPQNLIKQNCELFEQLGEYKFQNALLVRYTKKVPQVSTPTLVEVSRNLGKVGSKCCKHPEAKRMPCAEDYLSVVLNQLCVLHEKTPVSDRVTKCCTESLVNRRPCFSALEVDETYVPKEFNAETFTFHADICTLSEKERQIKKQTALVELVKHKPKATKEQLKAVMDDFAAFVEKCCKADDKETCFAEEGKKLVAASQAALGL

How the values were obtained:
Conditions in all cases: isolated protein
Albumin [1] = molecular target: T1, Albumin (Homo sapiens, UniProt P02768); assay: Binding affinity to human serum albumin at pH 7.4 at 288 K by Stern-Volmer plot analysis
Albumin [2] = molecular target: T1, Albumin; assay: Binding affinity to human serum albumin at pH 7.4 at 303 K by Stern-Volmer plot analysis
Albumin [3] = molecular target: T1, Albumin; assay: Binding affinity to human serum albumin at pH 7.4 at 310 K by Stern-Volmer plot analysis

CCn1cc(-c2csc(N)n2)c(=O)c2cc(N3CCCC3)c(Cl)cc21
Ka (Albumin [1]): 1.47 ×10⁵ L/mol | Ka (Albumin [2]): 1.39 ×10⁵ L/mol | Ka (Albumin [3]): 1.37 ×10⁵ L/mol
